## Cyclic peptide permeability, from CycPeptMPDB

Values of Kelly et al. 2021, doi:10.1021/jacs.0c06115, as listed in CycPeptMPDB.

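Conditions beyond the assay type are not listed; see the original paper. Other peptides of the study may be missing here. Peptides that the database sets to -10, its floor, are left out.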

PAMPA is the parallel artificial membrane permeability assay, which has no cells and reads passive diffusion.
Permeability is in 10^-6 cm/s, converted from the database's log10 values; higher is more permeable.

SMILES,PAMPA (10^-6 cm/s)
COc1ccc(C[C@@H]2NC(=O)[C@@H](Cc3cccc4ccccc34)NC(=O)[C@@H](NC(=O)[C@@H](CC(C)C)N(C)C(=O)[C@@H]3CCCN3C(C)=O)[C@@H](C)OC(=O)[C@@H]3CCCN3C(=O)[C@H](CC(C)C)NC(=O)[C@@H](C)N(C)C(=O)[C@@H](CC(C)C)NC2=O)cc1,0.14
COc1ccc(C[C@@H]2NC(=O)[C@@H](Cc3ccccc3)NC(=O)[C@@H](NC(=O)[C@@H](CC(C)C)N(C)C(=O)[C@@H]3CCCN3C(C)=O)[C@@H](C)OC(=O)[C@@H]3CCCN3C(=O)[C@H](CC(C)C)NC(=O)[C@@H](C)N(C)C(=O)[C@@H](Cc3ccc(F)c(F)c3)NC2=O)cc1,1.2
CCC[C@@H]1NC(=O)[C@@H](CC)NC(=O)[C@@H](NC(=O)[C@@H](CC(C)C)N(C)C(=O)[C@@H]2CCCN2C(C)=O)[C@@H](C)OC(=O)[C@@H]2CCCN2C(=O)[C@H](CC(C)C)NC(=O)[C@@H](C)N(C)C(=O)[C@@H](Cc2ccc(F)cc2)NC1=O,1.1
CC[C@H]1NC(=O)[C@@H](NC(=O)[C@@H](CC(C)C)N(C)C(=O)[C@@H]2CCCN2C(C)=O)[C@@H](C)OC(=O)[C@@H]2CCCN2C(=O)[C@H](CC(C)C)NC(=O)[C@@H](C)N(C)C(=O)[C@@H](Cc2ccccc2)NC(=O)[C@H](CCc2ccccc2)NC1=O,3
CC[C@H]1NC(=O)[C@H](Cc2ccc(OC)cc2)NC(=O)[C@@H](CC2CCCCC2)NC(=O)[C@@H](NC(=O)[C@@H](CC(C)C)N(C)C(=O)[C@@H]2CCCN2C(C)=O)[C@@H](C)OC(=O)[C@@H]2CCCN2C(=O)[C@H](CC(C)C)NC(=O)[C@@H](C)N(C)C1=O,2.3
CC(=O)N1CCC[C@H]1C(=O)N[C@@H]1C(=O)N(C)[C@H](CC(C)C)C(=O)N(C)[C@@H](CC(C)C)C(=O)N(C)[C@H](CC(C)C)C(=O)N[C@H](CC(C)C)C(=O)N[C@H](C)C(=O)N[C@@H](CC(C)C)C(=O)N2CCC[C@@H]2C(=O)O[C@@H]1C,3.1
CC(=O)N1CCC[C@H]1C(=O)N[C@@H]1C(=O)N(C)[C@H](CC(C)C)C(=O)N(C)[C@@H](CC(C)C)C(=O)N[C@@H](CC(C)C)C(=O)N(C)[C@H](CC(C)C)C(=O)N(C)[C@H](C)C(=O)N[C@@H](CC(C)C)C(=O)N2CCC[C@@H]2C(=O)O[C@@H]1C,0.98
CCC[C@H]1NC(=O)[C@@H](NC(=O)[C@@H](CC(C)C)N(C)C(=O)[C@@H]2CCCN2C(C)=O)[C@@H](C)OC(=O)[C@@H]2CCCN2C(=O)[C@H](CC(C)C)NC(=O)[C@@H](C)N(C)C(=O)[C@@H](Cc2ccc(F)cc2)NC(=O)[C@H](Cc2ccc(OC)cc2)NC1=O,1.8
COc1ccc(C[C@@H]2NC(=O)[C@@H](Cc3ccc(F)cc3)NC(=O)[C@@H](NC(=O)[C@@H](CC(C)C)N(C)C(=O)[C@@H]3CCCN3C(C)=O)[C@@H](C)OC(=O)[C@@H]3CCCN3C(=O)[C@H](CC(C)C)NC(=O)[C@@H](C)N(C)C(=O)[C@@H](CC(C)C)NC2=O)cc1,2.1
CCC[C@H]1NC(=O)[C@@H](NC(=O)[C@@H](CC(C)C)N(C)C(=O)[C@@H]2CCCN2C(C)=O)[C@@H](C)OC(=O)[C@@H]2CCCN2C(=O)[C@H](CC(C)C)NC(=O)[C@@H](C)N(C)C(=O)[C@@H](Cc2cccc3ccccc23)NC(=O)[C@H](Cc2ccc(OC)cc2)NC1=O,1.4
CC(=O)N1CCC[C@H]1C(=O)N[C@@H]1C(=O)N(C)[C@H](CC(C)C)C(=O)N(C)[C@@H](CC(C)C)C(=O)N(C)[C@@H](CC(C)C)C(=O)N(C)[C@@H](CC(C)C)C(=O)N[C@@H](C)C(=O)N[C@@H](CC(C)C)C(=O)N2CCC[C@@H]2C(=O)O[C@@H]1C,6.3
CC[C@H]1NC(=O)[C@@H](NC(=O)[C@@H](CC(C)C)N(C)C(=O)[C@@H]2CCCN2C(C)=O)[C@@H](C)OC(=O)[C@@H]2CCCN2C(=O)[C@H](CC(C)C)NC(=O)[C@@H](C)N(C)C(=O)[C@@H](Cc2cccc3ccccc23)NC(=O)[C@H](Cc2ccccc2)NC1=O,3.4